The values that follow come from PubChem BioAssay AID1040 (The Scripps Research Institute Molecular Screening Center, 2008).

By UniProt entry, the sequences of proteins in these tests, tags left out.
UniProt P25929, whole entry: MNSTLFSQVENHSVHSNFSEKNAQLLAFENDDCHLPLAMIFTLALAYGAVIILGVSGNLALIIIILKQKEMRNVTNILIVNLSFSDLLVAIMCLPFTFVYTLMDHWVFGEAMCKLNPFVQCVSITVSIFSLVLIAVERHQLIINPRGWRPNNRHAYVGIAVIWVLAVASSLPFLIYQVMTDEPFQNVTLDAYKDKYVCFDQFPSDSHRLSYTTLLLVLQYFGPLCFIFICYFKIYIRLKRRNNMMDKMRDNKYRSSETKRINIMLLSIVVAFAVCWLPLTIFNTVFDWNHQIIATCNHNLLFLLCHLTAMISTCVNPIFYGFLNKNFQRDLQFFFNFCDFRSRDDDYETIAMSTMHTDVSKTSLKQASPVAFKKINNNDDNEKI

SMILES strings stand for the structures. Only a part is listed here, and it is no random draw. Some of these compounds have results that are not shown, active ones among them. Activity calls are given as the source filed them.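 The calls were made as follows: active = inhibition above the campaign mean inhibition of all tested compounds plus 3 SD (cut at about 20% in these data); inactive = the rest.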

The target of this test is Neuropeptide Y receptor type 1 (Homo sapiens) (UniProt P25929). Briefly: blockers of human neuropeptide Y Y1 receptor – cell-based, primary screen (AID 1040).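 Also: 0% = DMSO wells given NPY plus isoproterenol and 100% = isoproterenol alone without NPY.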 Conditions: HEK293-CNG Y1 cells, membrane potential fluorescence; at 3.6 µM; stronger effect = higher value; NPY at EC95, then isoproterenol.
The term inhibition denotes the drop in the measured response relative to a control, in per cent. As for `CN(C)c1cccc(C(=O)NCC2(N(C)C)CCCCC2)c1`, the inhibition is inactive: 5.76%.
Take `O=C(OC1CN2CCC1CC2)C(CO)(c1ccccc1)c1ccccc1` (centres undefined): the inhibition is inactive: -2.22%.
Regarding `COc1cccc(C(=O)NCC2(N3CCCCC3)CCCCC2)c1`, the inhibition is inactive: 7.6%.
Turning to `CCN1CCCC(OC(=O)C2(O)c3ccccc3C=Cc3ccccc32)C1` (centres undefined), the inhibition was inactive: 3.3%.
In the case of `C=CCN1CCN(CCOC(=O)C(O)(c2ccccc2)c2ccccc2)CC1` it was inactive: -10.2%; in that of `CN(C)C1CCCC1OC(=O)C(O)(c1ccccc1)c1ccccc1` (centres undefined), inactive: 2.68%.
As for `Cc1ccccc1C(=O)NCC1(N2CCCCC2)CCCCC1`, the inhibition is inactive: -0.75%.
Take `CC(C)N1C(=O)CC2(CCN(CCOC(=O)C(O)(c3ccccc3)c3ccccc3)CC2)C1=O`: the inhibition is inactive: -0.72%.
Consider `O=C(NCC1(N2CCCCC2)CCCCC1)c1cc([N+](=O)[O-])ccc1Cl`, for which the inhibition is inactive: 2.57%.
